# From ChEMBL document CHEMBL5247577, “Improved Selective Class I HDAC and Novel Selective HDAC3 Inhibitors: Beyond Hydroxamic Acids and Benzamides” (ACS Med Chem Lett, 2019)
# Amino acid sequences for entries named in this document (tags omitted). A change or cut given only in a name is not applied to a line headed by its entry.
# UniProt O15379: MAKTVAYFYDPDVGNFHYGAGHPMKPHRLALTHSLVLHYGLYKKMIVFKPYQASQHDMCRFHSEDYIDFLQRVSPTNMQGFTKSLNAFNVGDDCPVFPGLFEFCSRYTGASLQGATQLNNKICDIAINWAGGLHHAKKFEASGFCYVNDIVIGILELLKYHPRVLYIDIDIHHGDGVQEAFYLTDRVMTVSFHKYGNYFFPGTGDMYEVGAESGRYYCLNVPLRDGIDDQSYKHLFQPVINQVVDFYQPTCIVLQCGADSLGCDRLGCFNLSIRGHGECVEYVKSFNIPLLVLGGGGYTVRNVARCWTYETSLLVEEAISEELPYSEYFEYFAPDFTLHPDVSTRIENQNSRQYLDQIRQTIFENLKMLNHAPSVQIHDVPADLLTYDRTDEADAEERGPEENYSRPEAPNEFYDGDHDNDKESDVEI
# Biological target: Histone deacetylase 3 (Homo sapiens, UniProt O15379)
row,SMILES,IC50
1,CNC(=O)CCCCC[C@H](NC(=O)c1cncs1)c1ncc(-c2ccc(-n3cccn3)cc2)[nH]1,223 nM
2,CNC(=O)CCCCC[C@H](NC(=O)CCc1c[nH]c2ccccc12)c1ncc(-c2ccc(CN(C)C)cc2)[nH]1,26 nM

# Continued, values first:
row,IC50,SMILES
1,235 nM,CNC(=O)CCCCC[C@H](NC(=O)c1cncs1)c1ncc(-c2ccc3ccccc3c2)[nH]1
2,162 nM,CNC(=O)CCCCC[C@H](NC(=O)c1cncs1)c1ncc(-c2ccc(CN(C)C)cc2)[nH]1
3,42 nM,CNC(=O)CCCCC[C@H](NC(=O)CCc1c[nH]c2ccccc12)c1ncc(-c2ccc(-n3cccn3)cc2)[nH]1
